Data reported in patent US5576436A, “Fluorescent ligands” (Pharmaceutical Discovery Corporation, priority 1994, dated 1996).

Test system: Glycine
Assay: Fluorescent ligand binding, glycine receptor (strychnine-insensitive)
Conditions: result in words

O=C(NCCCCCCNc1ccc([N+](=O)[O-])c2nonc12)c1cc(O)c2c(Cl)cc(Cl)cc2n1 [PDC 002.083]
activity/usefulness in an assay for binding as measured using the fluorescent label: active and useful
